## Antibody variant affinities, Ab-14 light chain, assay B

From the AlphaSeq antibody data of Li et al. 2023 (doi:10.1038/s41467-023-39022-2), copy in the FLAb collection.

Target peptide (SARS-CoV-2 spike, HR2 region): PDVDLGDISGINAS

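The parent was found by panning a naive human phage display library on the peptide. This is the validation round: designs drawn from the data on random variants, tested in the same kind of assay. Their group label is 14L_GP_HC (GP: Gaussian process model; HC: hill climbing; a sequence that several methods proposed may carry one label only). The scFvs were displayed on barcoded MATa yeast, the peptide on MATalpha yeast. Binding brings cells together so that they mate, and sequencing counts the barcode pairs among the diploids. A regression on co-assayed BCL2-family reference pairs converts the normalised counts of each replicate to an apparent Kd. Each pool was mated in six replicate cultures.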

Parent scFv Ab-14: VH joined to VL by a (GGGGS)3 linker. Changes lie in the light chain CDRs alone.
VH: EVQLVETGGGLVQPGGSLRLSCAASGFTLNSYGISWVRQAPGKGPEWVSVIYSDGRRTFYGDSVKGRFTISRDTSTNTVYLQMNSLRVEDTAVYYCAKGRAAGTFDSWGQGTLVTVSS
VL: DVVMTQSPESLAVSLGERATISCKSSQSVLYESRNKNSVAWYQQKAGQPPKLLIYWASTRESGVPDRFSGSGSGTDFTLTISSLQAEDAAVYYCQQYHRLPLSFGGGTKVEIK

Variants are written as CDR1, CDR2 and CDR3 of the light chain (limits as in the source). Parent: KSSQSVLYESRNKNSVA, WASTRES, QQYHRLPLS.
Scale: log10 of Kd in nM, estimated from mating counts; low values are strong binders.
An entry "n.d." has no value in the source: the pair was not observed among the diploids in that replicate. This suggests poor binding but is not conclusive.

| # | CDR-L1 | CDR-L2 | CDR-L3 | replicates, log10 nM | empty controls |
|---|---|---|---|---|---|
| 1 | KSSQSVLGEQGNKNSVA | DISTRES | QQYHRLPLS | 0.23 0.31 0.23 0.28 -0.08 0.39 | 0/18 |
| 2 | KLEQSILYESRNKNSVA | NASTRES | QQYHRLPLS | 0.56 0.79 0.94 0.48 0.59 0.61 | 0/18 |
| 3 | KSSWSVLGESRNKNSVA | DASTRES | QQYHRLPLS | -0.19 -0.21 -0.12 -0.43 -0.49 -0.13 | 1/18 (2.27) |
| 4 | KSLWSVQYESNNKNSVA | HASTRED | QQYHRLPLS | 0.59 0.12 0.54 0.10 0.22 0.44 | 2/18 (1.69) |
| 5 | KVSPSWLYESRNKNSVA | QASTRES | QQYHRLPLS | -0.19 0.07 -0.02 -0.09 0.01 0.07 | 2/18 (3.04) |
| 6 | KQSQSVLYESRNKNSVA | DASTRES | QDYHRLPLD | 0.97 0.88 0.82 0.96 1.17 0.70 | 0/18 |
| 7 | LSSISYLYESGNKNSVA | EASTRES | QQYHRLPLS | n.d. 1.05 0.28 0.67 0.63 0.63 | 0/18 |
| 8 | KVSFSDLLESRNKNSVA | EASTRES | QQYHRLPLS | 0.28 0.21 0.09 0.06 0.30 0.28 | 0/18 |
| 9 | KSSESYLYESRNKNSVA | EASTREQ | QQYHRLPLS | 0.13 0.04 -0.03 0.02 -0.19 -0.02 | 1/18 (2.90) |
| 10 | KSGQGVLYESRNKNSVA | GASQRSS | QQYHRLPLS | 0.99 0.79 0.97 0.86 0.85 1.35 | 2/18 (4.05) |
| 11 | KSSQVDLYESRNKNSVA | GASTRES | QQYHRLPLS | 0.17 0.08 0.14 -0.08 -0.21 -0.26 | 0/18 |
| 12 | KVSQSVLGEQRNKNSVA | DISTRES | QQYHRLPLS | 0.33 -0.01 -0.20 -0.17 -0.02 0.10 | 0/18 |
| 13 | KSSISYLYESRNKNSVA | EASTRED | QQYHRLPLM | -0.03 -0.35 -0.26 -0.39 -0.26 0.01 | 0/18 |
| 14 | KYSQVYLYESRNKNSVA | GASTRES | QQYHRLPLS | 0.19 2.78 1.23 -0.33 1.15 0.65 | 0/18 |
| 15 | KMSQSVLMESRNANSVA | DASTRES | QQYHRLPLS | 0.12 -0.16 -0.15 -0.33 -0.19 -0.04 | 6/18 (2.93) |
| 16 | KQSQSCLCESRNKNSVA | DASTRES | QQYHRLPLS | 0.71 0.53 0.44 0.19 0.23 0.74 | 0/18 |
| 17 | KQSQAFLMESRNKNSVA | DANTRES | QQYHRLPLS | 0.14 -0.25 -0.03 -0.05 -0.09 0.22 | 1/18 (3.82) |
| 18 | KLEQGVLYESRNKNSVA | GASTRES | QQYHRLPLS | 0.26 0.21 -0.02 0.11 0.01 0.13 | 5/18 (3.54) |
| 19 | KFSQSVLYESRDSNRVA | NASTRES | QQYHRLPLS | 0.18 -0.08 0.29 0.14 0.22 0.07 | 1/18 (2.97) |
| 20 | KSSQSWLYESRNKNSVA | GASTREE | QQYHRLPLS | -0.35 -0.60 -0.58 -0.84 -0.67 -0.49 | 1/18 (2.10) |
| 21 | KLEQSIYYESRNKNSVA | NASTRES | QQYHRLPLS | 0.33 0.13 0.05 -0.05 -0.03 0.22 | 1/18 (2.58) |
| 22 | KSSQSYHYESRNKNSVA | GASTREQ | QQYHRLPLS | 0.33 0.11 -0.07 0.00 0.10 0.17 | 1/18 (2.16) |
| 23 | KLEQSWNYESRNKNSVA | NASTRES | QQYHRLPLS | -0.16 -0.25 -0.40 -0.53 -0.33 -0.14 | 2/18 (3.08) |
| 24 | KLRMSTLYESRNKNSVA | RASTRES | QQYHRLPLS | n.d. n.d. n.d. n.d. n.d. n.d. | 0/18 |
| 25 | KSSMSFLYESRNKNSVA | EASTRES | QQYHRLPLS | 0.31 0.06 0.17 0.09 0.05 0.21 | 1/18 (3.79) |
| 26 | KSSPSDLYESRNKNSVA | EASTREQ | QQYHRLPLS | 0.45 0.27 -0.09 -0.03 0.10 0.44 | 0/18 |
| 27 | QSSQSELYESRNKNSVA | GASTRES | QQYHRLPLS | -0.29 -0.27 -0.41 -0.48 -0.44 -0.49 | 1/18 (2.88) |
| 28 | KSLWSVLYESNNKNSVA | AASTRED | QQYHRLPLS | 0.62 0.81 0.50 0.67 0.67 0.46 | 0/18 |
| 29 | KLPQGVLYESRNKNSVA | GASFRES | QQYHRLPLS | 0.19 0.07 -0.14 -0.11 -0.10 -0.07 | 0/18 |
| 30 | KVSQSWLMESRNKNSVA | EASTRES | QQYHRLPLS | 0.01 -0.19 -0.06 -0.25 0.03 0.00 | 1/18 (2.03) |
| 31 | KSLSSVLYESNNKNSVA | HASTRED | QQYHRLPLS | 0.34 0.41 0.01 -0.03 0.04 0.06 | 1/18 (2.35) |
| 32 | KSGQGQLYESRNKNSVA | GASQRWS | QQYHRLPLS | 1.45 1.32 0.89 1.67 1.25 1.35 | 0/18 |
| 33 | KSSISYLYESMNKNSVA | QGSTRES | QQYHRLPLS | 0.03 0.12 0.16 -0.24 -0.08 0.01 | 1/18 (2.18) |
| 34 | KSSQSVEMESRNKNSVA | DASTRES | QQYHRLPLS | 0.37 0.04 -0.31 -0.23 -0.07 0.23 | 1/18 (1.78) |
| 35 | KSSTSGLYESAMKNSVA | EASTRES | QQYHRLPLS | 1.62 1.55 1.21 1.43 1.35 1.65 | 0/18 |
| 36 | KVSQSTLYESGTKNSVA | NASSRES | QQYHRLPLS | 0.76 1.15 0.55 0.69 1.06 0.84 | 0/18 |
| 37 | KLAQSTLYESRNPNSVA | WASTRES | QQYHRLPLS | 0.57 0.35 0.47 0.38 0.46 0.33 | 0/18 |
| 38 | KSLQSGLYESRNKNSVA | HASTRED | QQYHRLPLS | 0.26 0.14 0.06 -0.04 -0.01 0.26 | 3/18 (2.24) |
| 39 | KSSQSVLGEQRNKNSVA | DDSTRES | QQYHRLPLS | 0.85 0.33 0.25 0.27 0.42 0.32 | 0/18 |
| 40 | KLEQSIWYESRNKNSVA | NASTRES | QQYHRLPLS | -0.02 -0.28 -0.23 -0.39 -0.40 -0.09 | 0/18 |
| 41 | KLSISGLYESRNKNSVA | EASTRES | QQYHRLPLS | -0.16 -0.38 -0.17 -0.19 -0.41 -0.10 | 0/18 |

A selection of 7 entries from above:

| CDR-L1 | CDR-L2 | CDR-L3 | replicates, log10 nM | empty controls |
|---|---|---|---|---|
| KVSQSWLMESRNKNSVA | EASTRES | QQYHRLPLS | 0.01 -0.19 -0.06 -0.25 0.03 0.00 | 1/18 (2.03) |
| KVSQSVLGEQRNKNSVA | DISTRES | QQYHRLPLS | 0.33 -0.01 -0.20 -0.17 -0.02 0.10 | 0/18 |
| KVSQSTLYESGTKNSVA | NASSRES | QQYHRLPLS | 0.76 1.15 0.55 0.69 1.06 0.84 | 0/18 |
| KLEQSIYYESRNKNSVA | NASTRES | QQYHRLPLS | 0.33 0.13 0.05 -0.05 -0.03 0.22 | 1/18 (2.58) |
| KVSFSDLLESRNKNSVA | EASTRES | QQYHRLPLS | 0.28 0.21 0.09 0.06 0.30 0.28 | 0/18 |
| KQSQSVLYESRNKNSVA | DASTRES | QDYHRLPLD | 0.97 0.88 0.82 0.96 1.17 0.70 | 0/18 |
| KYSQVYLYESRNKNSVA | GASTRES | QQYHRLPLS | 0.19 2.78 1.23 -0.33 1.15 0.65 | 0/18 |

The authors' rule: three or more of the six replicates give a measured affinity, fewer mean a poor binder.
Values of this round are not directly comparable with the first-round values of the same sequences.
Nonspecific signal, from three strains lacking the peptide, appeared in 4% of pairings of all light chain designs, centred on 2.64 (5% of these signals below 1.59); values are not corrected for it. For each scFv, signals with the empty controls are counted beside the result, with their mean in brackets.